Test results published in US7488745B2, “Compounds for the treatment of inflammatory disorders” (Schering Corporation, priority 2004, dated 2009).

Protein sequences, listed by entry. Tags and fused reporters are not part of them. Residues count along the entry.
UniProt P78536, 215-477 S266A/N452Q limits assumed: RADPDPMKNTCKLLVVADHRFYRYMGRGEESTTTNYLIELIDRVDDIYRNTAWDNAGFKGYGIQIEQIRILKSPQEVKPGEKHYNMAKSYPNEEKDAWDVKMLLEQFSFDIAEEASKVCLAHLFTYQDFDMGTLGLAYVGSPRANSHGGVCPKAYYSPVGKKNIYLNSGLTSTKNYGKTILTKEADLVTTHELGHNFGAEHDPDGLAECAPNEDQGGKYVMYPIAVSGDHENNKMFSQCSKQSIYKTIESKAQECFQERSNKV

Biological target: purified catalytic domain of recombinant human TACE (rhTACEc) (Homo sapiens, UniProt P78536, N452Q/S266A)
Test: TACE kinetic assay: cleavage of internally quenched peptide substrate SPDL-3 (fluorescence)
[1] = Ki Rating, TACE inhibitory activity, Table 3000
[2] = Ki (nM), TABLE 6000, Ki printed as class symbols A-D
[3] = Ki (nM), TACE inhibitory activity, class letters
[4] = Ki (nM), Specific TACE inhibitory activity (Ki values)

Row | Ki [2] [nM] | Ki [3] [nM] | SMILES | other results
1 |  |  | COc1ccc2c(c1)C(=O)N(C[C@@]1(c3ccc(-c4ncnc5c4ncn5C)cc3)NC(=O)NC1=O)C2 [Compound 3032] | Ki [1]: < 10 nM
2 | 100 to 1000 |  | COc1ccc2c(c1)C(=O)N(CC1(c3ccc(Oc4ccncc4)cc3)NC(=O)NC1=O)C2 (centres unmarked) [Compound 9609] | 
3 |  |  | O=C1NC(=O)C(CN2Cc3ccc(Cl)cc3C2=O)(c2cccc(F)c2)N1 (centres unmarked) [Compound 4006] | Ki [1]: 100 to 1000 nM
4 |  | 10 to 100 | NC(=O)CCC1(CN2Cc3ccc(Cl)cc3C2=O)NC(=O)NC1=O (centres unmarked) [Compound 294] | 
5 | < 10 |  | COc1ccc2c(c1)C(=O)N(C[C@@]1(c3ccc(-c4ccc5c(cnn5CC5CC5)c4)cc3)NC(=O)NC1=O)C2 [Compound 9744] | 
6 | < 10 |  | COc1ccc2c(c1)C(=O)N(C[C@@]1(c3ccc(-c4cncc(-c5nnn(C)n5)c4)cc3)NC(=O)NC1=O)C2 [Compound 9759] | 
7 |  | < 10 | O=C1NC(=O)[C@](CN2Cc3ccc(F)cc3C2=O)(c2ccc(-c3ccsc3)cc2)N1 [Compound 147] | 
8 |  |  | O=C1NC(=O)[C@](CN2Cc3ccc(OCC#CC4CC4)cc3C2=O)(c2ccc(-c3cccc4cccnc34)cc2)N1 [Compound 3014] | Ki [1]: 10 to 100 nM
9 |  | 100 to 1000 | COc1ccc2c(c1)CN(CC1(CN[C@H]3CC[C@H](N)CC3)NC(=O)NC1=O)C2=O (some centres unmarked) [Compound 291] | 
10 | < 10 |  | COc1ccc2c(c1)C(=O)N(C[C@@]1(c3ccc(-c4ccnc(N)c4)cc3)NC(=O)NC1=O)C2 [Compound 9523] | 
11 | < 10 |  | COc1ccc2c(c1)C(=O)N(C[C@@]1(c3ccc(-c4ccc5cnn(C)c5c4)cc3)NC(=O)NC1=O)C2 [Compound 9710] | 
12 |  | 10 to 100 | COc1ccc2c(c1)CN(CC1(C3CCN(c4ccccc4C#N)CC3)NC(=O)NC1=O)C2=O (centres unmarked) [Compound 269] | 
13 | < 10 |  | COc1ccc2c(c1)C(=O)N(C[C@@]1(c3ccc(-c4cnc5ncccc5c4)cc3)NC(=O)NC1=O)C2 [Compound 9511] | 
14 |  |  | COc1ccc2c(c1)CN(CC1(c3ccc(OC(C)C)cc3)NC(=O)NC1=O)C2=O (centres unmarked) [Compound 5017] | Ki [1]: < 10 nM
15 | < 10 |  | COc1ccc2c(c1)C(=O)N(C[C@@]1(c3cc(-c4cccnc4)no3)NC(=O)NC1=O)C2 [Compound 9249] | 
16 |  | < 10 | CC#CCOc1ccc2c(c1)C(=O)N(C[C@@]1(c3ccccc3)NC(=O)NC1=O)C2 [Compound 198] | Ki [4]: 1.29 nM
17 |  | 100 to 1000 | O=C1NC(=O)[C@@](CN2Cc3ccc(F)cc3C2=O)(c2ccc(-c3ncccn3)cc2)N1 [Compound 162] | 
18 | < 10 |  | CNc1nc(-c2ccc([C@]3(CN4Cc5ccc(OC)cc5C4=O)NC(=O)NC3=O)cc2)cs1 [Compound 9004C] | 
19 |  | < 10 | O=C1NC(=O)C(CN2Cc3ccc(F)cc3C2=O)(c2cc3ccccc3o2)N1 (centres unmarked) [Compound 177] | 
20 |  |  | COc1ccc2c(c1)C(=O)N(CC1(c3ccc(-c4csc(N)n4)cc3)NC(=O)NC1=O)C2 (centres unmarked) [Compound 2026H] | Ki [1]: < 10 nM
21 |  |  | COc1ccc2c(c1)C(=O)N(C[C@@]1(c3ccc(-c4ccc(C)cn4)cc3)NC(=O)NC1=O)C2 [Compound 4022] | Ki [1]: < 10 nM
22 | < 10 |  | COc1ccc2c(c1)C(=O)N(C[C@@]1(c3cc(-c4ccccn4)no3)NC(=O)NC1=O)C2 [Compound 9250] | 
23 |  | 100 to 1000 | O=C1NC(=O)[C@](CN2Cc3ccc(N4CCOCC4)cc3C2=O)(c2ccc(N3CCOCC3)cc2)N1 [Compound 140] | 
24 | < 10 |  | COc1ccc2c(c1)C(=O)N(C[C@@]1(c3ccc(-c4cnc(N)nc4)cc3)NC(=O)NC1=O)C2 [Compound 9522] | 

Row | Ki [2] [nM] | Ki [3] [nM] | SMILES | other results
25 | < 10 |  | Cn1ncc2cc(-c3ccc([C@]4(CN5Cc6ccc(OC(F)F)cc6C5=O)NC(=O)NC4=O)cc3)ccc21 [Compound 9740] | 
26 | < 10 |  | COc1ccc2c(c1)C(=O)N(C[C@@]1(c3cn(-c4cnccn4)nn3)NC(=O)NC1=O)C2 [Compound 9271] | 
27 | < 10 |  | COc1ccc2c(c1)C(=O)N(C[C@@]1(c3csc(N)n3)NC(=O)NC1=O)C2 [Compound 9203] | 
28 | < 10 |  | COc1ccc2c(c1)C(=O)N(C[C@@]1(C(=O)Cc3c[nH]c(=O)c(C)c3)NC(=O)NC1=O)C2 [Compound 9272] | 
29 |  | 10 to 100 | O=C1NC(=O)[C@](CN2Cc3cc(OCc4ccnc(N5CCOCC5)c4)ccc3C2=O)(c2ccc(F)cc2)N1 [Compound 221] | 
30 |  | 100 to 1000 | CC(C)S(=O)(=O)NCC1(CN2Cc3ccccc3C2=O)NC(=O)NC1=O (centres unmarked) [Compound 39] | 
31 |  | 10 to 100 | O=C1NC(=O)[C@](CN2Cc3ccc(Cl)cc3C2=O)([C@H](O)CO)N1 [Compound 283] | 
32 |  | 100 to 1000 | CC#CCOc1ccc2c(c1)CN(C[C@]1(c3ccc(-c4ccncc4)cc3)C(=O)NC(=O)N1CC#CC)C2=O [Compound 216] | 
33 |  |  | COc1ccc2c(c1)C(=O)N(C[C@@]1(c3ccc(-c4cncc(C#N)c4)cc3)NC(=O)NC1=O)C2 [Compound 4024] | Ki [1]: < 10 nM
34 |  | < 10 | O=C1NC(=O)[C@](CN2Cc3ccc(F)cc3C2=O)(c2ccc(-c3nc4ccccc4s3)cc2)N1 [Compound 160] | 
35 | < 10 |  | COc1ccc2c(c1)C(=O)N(C[C@@]1(c3cc4nc(I)c(C)cc4o3)NC(=O)NC1=O)C2 [Compound 9278] | 
36 |  | 10 to 100 | COc1ccc2c(c1)CN(CC1(CNC3CCC3)NC(=O)NC1=O)C2=O (centres unmarked) [Compound 38] | 
37 |  | 100 to 1000 | CC#CCOc1ccc2c(c1)CN(C[C@]1(c3ccc(F)cc3)C(=O)NC(=O)N1CC#CC)C2=O [Compound 231] | 
38 |  | > 1000 | Cc1cc(-c2ccc([C@@]3(CN4Cc5ccc(F)cc5C4=O)NC(=O)NC3=O)cc2)ccn1 [Compound 176] | 
39 |  | 10 to 100 | COc1ccc(S(=O)(=O)N2CCC(C3(CN4Cc5cc(OC)ccc5C4=O)NC(=O)NC3=O)CC2)cc1 (centres unmarked) [Compound 255] | 
40 |  | 100 to 1000 | CC1(CN2Cc3cc(Br)ccc3C2=O)NC(=O)NC1=O (centres unmarked) [Compound 10] | 
41 | < 10 |  | COc1ccc2c(c1)C(=O)N(C[C@@]1(c3cc(-c4ccccc4)nc(C)n3)NC(=O)NC1=O)C2 [Compound 9261] | 
42 | < 10 |  | COc1ccc2c(c1)C(=O)N(C[C@@]1(c3cc4ccc(C)nc4o3)NC(=O)NC1=O)C2 [Compound 9940] | 
43 |  |  | O=C1NC(=O)[C@](CN2Cc3ccc(F)cc3C2=O)(c2ccc(-c3c[nH]c4ccccc34)cc2)N1 [Compound 6004] | Ki [1]: < 10 nM
44 | 100 to 1000 |  | C#CC(C)(C)Oc1ccc2c(c1)C(=O)N(C[C@@]1(c3ccc(-c4cnn(C)c4)cc3)NC(=O)NC1=O)C2 [Compound 9716] | 
45 | < 10 |  | COc1ccc2c(c1)C(=O)N(C[C@@]1(c3cc4cncc(C)c4o3)NC(=O)NC1=O)C2 [Compound 9228] | 
46 |  |  | O=C1NC(=O)C(CN2Cc3ccc(F)cc3C2=O)(c2ccc(-c3ccc4cn[nH]c4c3)cc2)N1 (centres unmarked) [Compound 6013] | Ki [1]: < 10 nM
47 |  | < 10 | O=C1NC(=O)C(CN2Cc3ccc(F)cc3C2=O)(c2nc3ccccc3[nH]2)N1 (centres unmarked) [Compound 183] | 
48 |  | < 10 | COc1ccc2c(c1)C(=O)N(CC1(c3ccc(-c4ccccn4)s3)NC(=O)NC1=O)C2 (centres unmarked) [Compound 281] | 

Row | Ki [2] [nM] | Ki [3] [nM] | SMILES | other results
49 |  | 100 to 1000 | COc1ccc2c(c1)CN(CC1(C3CCN(C4CCN(C(=O)OC(C)(C)C)CC4)CC3)NC(=O)NC1=O)C2=O (centres unmarked) [Compound 274] | 
50 |  |  | COc1ccc2c(c1)C(=O)N(C[C@@]1(c3ccc(-c4cc(C(F)(F)F)cc5nc[nH]c45)cc3)NC(=O)NC1=O)C2 [Compound 3017] | Ki [1]: 10 to 100 nM
51 |  |  | Cn1cnc2c(-c3ccc([C@@]4(CN5Cc6ccc(F)cc6C5=O)NC(=O)NC4=O)cc3)ncnc21 [Compound 3027] | Ki [1]: > 1000 nM
52 |  | < 10 | O=C1NC(=O)[C@@](CN2Cc3ccc(F)cc3C2=O)(c2ccc(-c3cccc(Cl)c3)cc2)N1 [Compound 128] | 
53 |  |  | O=C1NC(=O)[C@](CN2Cc3ccc(F)cc3C2=O)(c2ccc(-c3cc(-c4ccccc4)no3)cc2)N1 [Compound 3026] | Ki [1]: 10 to 100 nM
54 | < 10 |  | COc1ccc2c(c1)C(=O)N(C[C@@]1(c3ccc(-c4ccc(C)nc4)cc3)NC(=O)NC1=O)C2 [Compound 9520] | 
55 |  | 10 to 100 | COc1ccc2c(c1)CN(CC1(C3CCN(C(=O)c4ccccc4)CC3)NC(=O)NC1=O)C2=O (centres unmarked) [Compound 267] | 
56 | < 10 |  | COc1ccc2c(c1)C(=O)N(CC1(c3nc4ccccc4n3C)NC(=O)NC1=O)C2 (centres unmarked) [Compound 9942] | 
57 | < 10 |  | COc1ccc2c(c1)C(=O)N(C[C@@]1(CCc3cc(F)cc(F)c3)NC(=O)NC1=O)C2 [Compound 9241] | 
58 |  | 10 to 100 | COc1ccc2c(c1)CN(CC1(C3CCN(S(C)(=O)=O)CC3)NC(=O)NC1=O)C2=O (centres unmarked) [Compound 252] | 
59 |  |  | COc1ccc2c(c1)C(=O)N(C[C@@]1(c3ccc(-c4cnc5ccccn45)cc3)NC(=O)NC1=O)C2 [Compound 6008] | Ki [1]: < 10 nM
60 | < 10 |  | COc1ccc2c(c1)C(=O)N(C[C@@]1(c3ccc(-c4cnc5ccccc5n4)cc3)NC(=O)NC1=O)C2 [Compound 9906] | 
61 | < 10 |  | COc1ccc2c(c1)C(=O)N(C[C@@]1(c3ccc(-c4ccc5nn(C)nc5c4)cc3)NC(=O)NC1=O)C2 [Compound 9714] | 
62 |  | 10 to 100 | COc1ccc2c(c1)CN(CC1(C3CCN(c4ncccn4)CC3)NC(=O)NC1=O)C2=O (centres unmarked) [Compound 270] | 
63 |  | 10 to 100 | COc1ccc2c(c1)CN(CC1(C3CCN(S(=O)(=O)c4ccc(Cl)cc4)CC3)NC(=O)NC1=O)C2=O (centres unmarked) [Compound 271] | 
64 |  | 10 to 100 | CC(C)(C)C1(CN2Cc3ccc(Cl)cc3C2=O)NC(=O)NC1=O (centres unmarked) [Compound 295] | 
65 |  | < 10 | O=C1NC(=O)[C@](CN2Cc3ccc(F)cc3C2=O)(c2ccc(-c3ccncc3)cc2)N1 [Compound 111] | Ki [4]: 0.48 nM
66 |  |  | COc1ccc2c(c1)C(=O)N(C[C@@]1(c3ccc(-c4cccc(C)n4)cc3)NC(=O)NC1=O)C2 [Compound 4035] | Ki [1]: < 10 nM
67 |  | < 10 | O=C1NC(=O)[C@](CN2Cc3ccc(F)cc3C2=O)(c2ccc(-c3cccnc3O)cc2)N1 [Compound 174] | 
68 | < 10 |  | COc1ccc2c(c1)C(=O)N(C[C@@]1(c3cc(-c4cn(C)c5ccccc45)no3)NC(=O)NC1=O)C2 [Compound 9254] | 
69 |  |  | CC#CCOc1ccc2c(c1)C(=O)N(C[C@@]1(c3ccc(-c4c(C)nn(C)c4C)cc3)NC(=O)NC1=O)C2 [Compound 3035] | Ki [1]: < 10 nM
70 | < 10 |  | COc1ccc2c(c1)C(=O)N(C[C@@]1(c3ccc(-c4cnc(OC)nc4OC)cc3)NC(=O)NC1=O)C2 [Compound 9758] | 

Row | SMILES | Ki [2] [nM] | Ki [3] [nM] | other results
71 | COc1ccc2c(c1)C(=O)N(C[C@@]1(c3cc4cccnc4o3)NC(=O)NC1=O)C2 [Compound 9217] | < 10 |  | Ki [4]: 0.7 nM
